Measurements from patent publication US20190275167A1, “GLASS FORMULATIONS AND USES THEREOF” (priority 2018, published 2019).

What was measured:
[1] = for Physical form of articles after two weeks: after two weeks in PBS, FIGS. 23D, 24D, 25D; for Physical form (shape) changes of articles: physiologically relevant conditions
[2] = Drug release from heat-molded pellets/articles in release buffer (PBS, 1% FBS in PBS or 100% FBS) at 37° C., HPLC quantification; assay type: physicochemical; conditions: for Drug release mechanism of articles: articles that undergo physical form (shape) changes, FIGS. 26A and 26B
[3] = microparticles, 50% FBS in PBS
[4] = FIGS. 26A and 26B (pellets in PBS at 37° C.)

With “Dexamethasone-Heptaethylene Glycol-Dexamethasone [Compound 11]” the “Physical form of articles after two weeks” value (“Physical form of articles” below) [1] was “form into spherical droplets”, the “Physical form (shape) changes of articles” value [1] was “undergo physical form (shape) changes” and the “Dexamethasone release profile from articles” value (“Dexamethasone release profile” for short) [2, 4] was “non-linear”. For the same substance, the “Drug release mechanism of articles” value [2] was “not via surface erosion”.

For “Dexamethasone-Hexane-Dexamethasone [Compound 5]”, the “Dexamethasone release profile” value [2] was “generally linear” and the “Period of dexamethasone release for which articles might be preferred” value [2] was no less than 6 months.

With “Dexamethasone-Nonaethylene Glycol-Dexamethasone [Compound 12]” the “Physical form of articles” value [1] was “form into spherical droplets”, the “Physical form (shape) changes of articles” value [1] was “undergo physical form (shape) changes” and the “Dexamethasone release profile” value [2, 4] was “non-linear”. For the same substance, the “Cumulative dexamethasone release at which release stops” value ([2]; after just 2 weeks in PBS) was “ca. 3%” and the “Drug release mechanism of articles” value [2] was “not via surface erosion”.

In the case of “Dexamethasone-Polyethylene Glycol (MW = 200)-Dexamethasone [Compound 10]”, the “Dexamethasone release profile” value ([2]; over the course of 12 weeks or more, FIGS. 1E, 12E, 15C, 17D) is reported as “generally linear”.

With “Dexamethasone-Polyethylene Glycol (MW = 300)-Dexamethasone [Compound 13]” the “Physical form of articles” value [1] was “form into spherical droplets”, the “Physical form (shape) changes of articles” value [1] was “undergo physical form (shape) changes” and the “Drug release mechanism of articles” value [2] was “not via surface erosion”.

With “Dexamethasone-Triethylene Glycol-Hydrocortisone [Compound 4]” the “Drugs released from pellets of heterodimer” value ([2]; PBS and/or 100% FBS, 37° C.) was “released both dexamethasone and hydrocortisone”.

In the case of “Triamcinolone Acetonide-Triethylene Glycol-Triamcinolone Acetonide [Compound 3]”, the “Drug release from nano- and micro-particles in the glassy state” value [3] is reported as “Sustained Release”.

Where two headings read alike, the source gives them in different places.
